# Measurements taken from PubChem BioAssay AID602233 (National Center for Advancing Translational Sciences (NCATS), 2012).
# The list shows a part of the results, in another mix than the full data. The source made the active and inactive calls. Calls come from the whole dose curve; as a rule, active = well fitted inhibition curve with a large enough effect; inconclusive = small, poorly fitted or top-dose-only effect; inactive = no such curve, though single readings can be large or run the other way.
# Target: Phosphoglycerate kinase, glycosomal (Trypanosoma brucei brucei) (UniProt P07378)
# Test: qHTS Assay to Find Inhibitors of Phosphoglycerate Kinase; note: nearly all actives have a fitted effect of over 60% in size
# Details: PGK/GAPDH coupled, Kinase-Glo luminescence, 60 min; activity change, negative = inhibition: at 57.5 µM (top of the series)
# Excerpt: Several species of the Trypanosomatidae family of parasitic protozoans cause a spectrum of diseases throughout the tropical and subtropical world. Sleeping sickness, caused by two subspecies of Trypanosoma brucei, is endemic to areas of sub-Saharan Africa, while Chagas disease, a manifestation of Trypanosoma cruzi infection, is prevalent throughout Central and South America. In addition, many species of Leishmania are responsible for a range of cutaneous and visceral diseases, causing ulcers, destructive lesions and kalaazar, a lethal infection of the viscera. Collectively, these organisms infect 30 million people worldwide (~500 million live in endemic areas), and account for ~130,000 deaths annually. Given their debilitating and prevalent nature, trypanosomatid parasites impose a heavy medical, economic and social burden on entire populations, primarily in the developing world. […]
# 3ul of substrate/PGK buffer (columns 1,2,5-48) are dispensed into Greiner white solid bottom 1536-well assay plates; columns 3-4 receive only TEA buffer as 0x PGK controls. […] Kinase-Glo Plus reagent is added (2ul) and plates incubated for 10 minutes, before being transferred to a ViewLux high-throughput CCD imager (PerkinElmer) wherein single end-point measurements of luminescence are acquired using a clear filter. […]
# % is set by controls: 0 for no effect and ±100 for the full control effect.
row,SMILES,"activity change, negative = inhibition"
1,CCC(=O)N(c1ccccc1)C1(COC)CCN(CCn2nnn(CC)c2=O)CC1,inactive: 4.18%
2,CCC(=O)N(c1ccccc1)C1(COC)CCN(CCc2cccs2)CC1,inactive
